Molecular target: T1, AtGPRAT2 (Arabidopsis thaliana, UniProt Q9STG9)
T1 sequence (Q9STG9 87-561): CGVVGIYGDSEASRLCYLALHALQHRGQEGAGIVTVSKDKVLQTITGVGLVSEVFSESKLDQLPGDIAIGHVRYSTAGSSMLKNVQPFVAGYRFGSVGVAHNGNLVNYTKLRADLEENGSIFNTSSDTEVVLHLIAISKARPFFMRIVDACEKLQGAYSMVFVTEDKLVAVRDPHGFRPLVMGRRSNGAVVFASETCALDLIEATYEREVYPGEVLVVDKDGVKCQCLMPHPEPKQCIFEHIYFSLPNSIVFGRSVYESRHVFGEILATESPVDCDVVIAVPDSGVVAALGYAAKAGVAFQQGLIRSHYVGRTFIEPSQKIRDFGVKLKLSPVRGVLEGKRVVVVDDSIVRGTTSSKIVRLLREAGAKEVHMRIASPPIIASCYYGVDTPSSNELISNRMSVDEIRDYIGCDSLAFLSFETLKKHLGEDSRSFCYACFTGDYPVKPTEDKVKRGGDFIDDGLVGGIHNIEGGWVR
Set-up: gene ASE2
Settings: recombinant AtGPRAT2 75-561; crystallised without DAS734 or PRPP

## [S]12[Fe]3[S]4[Fe]1[S]1[Fe]2[S]3[Fe]41 [4Fe-4S cofactor]
  crystal structure, 3.07 Å: two AtGPRAT2 molecules were found in the asymmetric unit, each with a 4Fe-4S cofactor

Reference: publication PMC7056826, “Crystal Structure of the Chloroplastic Glutamine Phosphoribosylpyrophosphate Amidotransferase GPRAT2 From Arabidopsis thaliana” (Frontiers in Plant Science, 2020)
